Experimental data taken from PMC9830440, “Simplified one-pot ^18F-labeling of biomolecules with in situ generated fluorothiophosphate synthons in high molar activity” (Theranostics, 2023).

Columns and labels:
[1] = Lipophilicity (Log D), 1-octanol/PBS; format: physicochemical; conditions: shake-flask, pre-saturated 1-octanol/PBS (0.05 mol L-1, pH = 7.4), 1.11 MBq, shaking 3 min, gamma counter, triplicate, mean ± SD
[2] = 60 min dynamic whole-body microPET imaging of 18F-labeled FTPs (bone uptake / defluorination); conditions: microPET imaging evaluation, n = 3, 0-60 min post-injection
Description: Figure 1 Analysis of rapid kinetics and condition scopes of the ^18F-labeling of FTPs. (A) Reaction scheme showing the fluorination of FTPs. (B) Reaction rate constant (k) values that were predicted by density functional calculations at B3LYP/6-311+G* level of theory (at 298 K) and k values that were measured at 298 K. The pseudo-first order initial rate constant (k´) of [^18F]1 (C) and [^18F]2 (E) were determinated from the kinetic curves reflecting the change in ln [1/(1 - RCC)] in DMF at different temperatures. The Ea of [^18F]1 (D) and [^18F]2 (F) were determinated from Arrhenius plots of ln k against 1/T. (G) RCCs of [^18F]1 and [^18F]2 at different time periods from 10 to 300 sec in acetonitrile at RT. RCCs of [^18F]1 (H) and [^18F]2 (I) at different temperatures and water contents (The solvents are mixtures of acetonitrile and water, v/v. “0%” means no additional water is added.) post 30 sec. (J) RCCs of [^18F]1 and [^18F]2 with different precursor loads in acetonitrile post 30 sec at RT. (K) RCCs of [^18F]1 and [^18F]2 in different solvents post 30 sec at RT. (L) The time-bone uptake curves of [^18F]1, [^18F]2, [^18F]3, and [^18F]4 during 0-60 min post-injection. Bone uptake was measured with microPET in healthy mice (n = 3).
9.8 In vivostabilities of 18F-labeled FTPs during dynamic PET imaging […]
at 37 °C and respiration rate was monitored and kept at 40–60 beat per minute (BPM) […]

[3] = in vivo biodistribution of 18F-labeled FTPs at 120 min post injection; conditions: i.v. tail vein, 2 h post injection, gamma counter
Text: improved after oxidized, and that anions also contribute to its stability.
When the anion was occupied, [ 18F]4 was slowly defluorinated in the body, but this
defluorination seemed to be acceptable, with only 3% increase in bone uptake within
10 Biodistribution studies
The in vivo biodistribution of four 18F-labeled FTPs ([18F]1, [ 18F]2, [ 18F]3 and
[18F]FTP-NHS/ [18F]15) were studied in BALB/c male mice (average weight 20 ± 2.0
g) by injecting a solution (in saline, pH = 7) of each compound (100 μL, 10
μCi/mouse, 0.1-0.2 nmol) into the tail vein of the animals. At 120 min post injection,
the animals were sacrificed and the main organs were removed, weighed, and then
counted by a γ-counter. In reference to a standard of the injected solution, results were
expressed as the percentage of the injected dose per gram of wet tissue or organ (%ID
Figure S49. Comparative biodistribution studies at 120 min post injection of [ 18F]1,
(1 picture or pasted object on this page, not shown here)

[4] = In vivo metabolic stabilities of 18F-labeled FTPs (blood and urine, radio-HPLC); conditions: ICR mice, i.v. 18.50 MBq, blood, 60 minutes after injection
Description: 9.6 Enzymatic stabilit ies of 18F-labeled FTPs in vitro
[18F]FTP-Tyr (0.1-0.3 MBq, 10 μL) was dissolved in 50 μL reaction buffer (10.0 mM
Tris-HCl (pH = 8.0)), 5.0 mM MgCl 2, 0.1 M KCl ，0.02% Triton X-100, 1 mM 2-
mercaptoethanol, 0.1mg mL-1 BSA). 5 μL beyoAP alkaline phosphatase was added to
the solution, then incubated at 37 ℃ after 30, 60, 120 min. 50 μL acetonitrile was
added to the mixture, and centrifuged at 16, 543 × g for 8 min. RCPs of the filtrate
was analyzed by radio-HPLC.
Figure S44.Enzymatic stabilities of [ 18F]FTP-Tyr.
9.7 In vivometabolic stabilities of 18F-labeled FTPs
In vivo metabolic stabilities of 18F-labeled FTPs in normal ICR mice were examined.
Normal ICR mice were intravenously injected with [18F]1, [ 18F]2, or [ 18F]3 (18.50
MBq in 100 µL saline), respectively. Each mouse was sacrificed at indicated time
with blood and urine collected. Each blood sample was immediately centrifuged at
10000 rpm for 5 min to obtain the serum. The serum was then treated with acetonitrile
and centrifuged at 10000 rpm for 8 min to provide the supernatant. The supernatant
was collected and passed through a 0.22 µm Millipore filter. Each urine sample was
diluted with 100 µL water and passed through a 0.22 µm millipore filter. RCPs of 18F-
labeled FTPs in all samples were analyzed by radio-HPLC.
[18F]1 and [ 18F]2 have better metabolic stability than [ 18F]3 in vivo, and 80% of them […]

## O-(but-3-yn-1-yl) [^18F]phosphorofluoridothioate
[1]
  Log D: -1.77 ± 0.02

## O-(But-3-yn-1-yl) [^18F]phosphorofluoridodithioate
[2]
  extent of defluorination (bone uptake): insignificant
[3]
  bone uptake: 0.9-1.1 %ID g^-1
[1]
  Log D: -1.09 ± 0.05
[4]
  fraction remaining in the form of the original drug: 80%

## O-phenyl [^18F]phosphorofluoridodithioate
[2]
  extent of defluorination (bone uptake): insignificant
[3]
  bone uptake: 0.9-1.1 %ID g^-1
[4]
  fraction remaining in the form of the original drug: 80%
